According to patent US20260242759A1, “GQ/11 Protein Peptidomimetics” (Vrije Universiteit Brussel, priority 2022, published 2026):

The substances below were run on HEK293 cells overexpressing the ghrelin receptor. Details: SulfoCy5-labeled peptides at 5 and 10 μM, 3 h 45 min, 37° C.
“H-C(SulfoCy5)-Ahx-RRRRFAc[PraVKDAzk]ILQLNLKEYNLV-OH [SBL-GQ-22]” was tested, and the “cell internalization (remaining fluorescence, words)” value was “little internalization capacity”. “H-C(SulfoCy5)-Ahx-RRWWRRWRRFAc[PraVKDAzk]ILQLNLKEYNLV-OH [SBL-GQ-24]” was tested, and the “cell internalization (remaining fluorescence, words)” value was “highest capacity to cross the cell membrane”. For “H-C(SulfoCy5)-Ahx-KKKFAc[PraVKDAzk]ILQLNLKEYNLV-OH [SBL-GQ-21]”, the “cell internalization (remaining fluorescence, words)” value was “almost no internalization”.
